Sequences of proteins named here, by UniProt entry; tags and fusion partners are left off.
UniProt P05230, whole entry: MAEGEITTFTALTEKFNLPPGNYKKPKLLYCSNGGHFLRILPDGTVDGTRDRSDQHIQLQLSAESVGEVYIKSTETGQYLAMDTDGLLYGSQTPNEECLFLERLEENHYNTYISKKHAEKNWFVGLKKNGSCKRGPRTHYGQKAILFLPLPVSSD

In ChEMBL document CHEMBL2057149 (J Med Chem, 2012):

Molecular target: Fibroblast growth factor 1 (Homo sapiens, UniProt P05230)
Assay: Binding affinity to FGF-1 by surface plasmon resonance assay
In short: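 Solution-affinity SPR on heparin-coated CM4 chips. FGF-1 measured in HBS-EP (10 mM HEPES pH 7.4, 150 mM NaCl, 3.0 mM EDTA, 0.005% polysorbate 20); FGF-2 measured in HBS-EP with 300 mM NaCl. Kd is the average of at least duplicate measurements ± SD.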

CC(C)CCC[C@@H](C)[C@H]1CC[C@H]2[C@@H]3CC[C@H]4C[C@@H](O[C@@H]5O[C@H](COS(=O)(=O)[O-])[C@@H](O[C@H]6O[C@H](COS(=O)(=O)[O-])[C@@H](O[C@H]7O[C@H](COS(=O)(=O)[O-])[C@@H](O[C@H]8O[C@H](COS(=O)(=O)[O-])[C@@H](OS(=O)(=O)[O-])[C@H](OS(=O)(=O)[O-])[C@H]8OS(=O)(=O)[O-])[C@H](OS(=O)(=O)[O-])[C@H]7OS(=O)(=O)[O-])[C@H](OS(=O)(=O)[O-])[C@H]6OS(=O)(=O)[O-])[C@H](OS(=O)(=O)[O-])[C@H]5OS(=O)(=O)[O-])CC[C@]4(C)[C@H]3CC[C@]12C.[Na+].[Na+].[Na+].[Na+].[Na+].[Na+].[Na+].[Na+].[Na+].[Na+].[Na+].[Na+].[Na+]
Kd: 8 nM
